Reference: US5272268A, “Dipeptide derivatives” (Shionogi & Co., Ltd., priority 1990, dated 1993)
Read-outs that look alike come from different tables or passages of the source.

Chains of the proteins cited; added tags and fusions are not shown. Residues count along the entry.
UniProt Q6DLS0, 67-406 limits assumed: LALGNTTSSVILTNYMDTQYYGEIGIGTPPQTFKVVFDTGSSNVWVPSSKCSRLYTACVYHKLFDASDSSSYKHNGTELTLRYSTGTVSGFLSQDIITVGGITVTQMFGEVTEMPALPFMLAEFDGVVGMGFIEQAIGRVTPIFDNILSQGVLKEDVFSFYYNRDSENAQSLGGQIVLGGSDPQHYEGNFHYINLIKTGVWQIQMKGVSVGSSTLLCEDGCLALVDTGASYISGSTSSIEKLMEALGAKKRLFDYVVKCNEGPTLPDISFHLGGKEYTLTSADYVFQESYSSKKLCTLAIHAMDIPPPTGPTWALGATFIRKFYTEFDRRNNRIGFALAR
UniProt P00797, 67-406 limits assumed: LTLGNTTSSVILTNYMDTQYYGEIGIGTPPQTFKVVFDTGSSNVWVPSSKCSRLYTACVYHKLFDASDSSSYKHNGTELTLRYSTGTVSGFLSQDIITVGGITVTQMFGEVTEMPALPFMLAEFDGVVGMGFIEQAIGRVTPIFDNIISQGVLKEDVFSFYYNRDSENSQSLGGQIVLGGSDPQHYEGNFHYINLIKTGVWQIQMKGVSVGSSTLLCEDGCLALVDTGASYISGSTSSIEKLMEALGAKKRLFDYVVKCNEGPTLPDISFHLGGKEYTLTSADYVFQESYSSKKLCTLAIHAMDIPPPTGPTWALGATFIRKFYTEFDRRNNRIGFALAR

Experiments:
Plasma renin activity = Plasma renin activity (Macaca fascicularis, UniProt Q6DLS0); experiment: Renin inhibition in vivo (plasma renin activity after oral administration to hyperrenin monkeys); conditions: 15 mg/kg orally; for Renin inhibition potency, 4 h: 4 h after administration; for Renin inhibition potency, 6 h: 6 h after administration; for Renin inhibition potency, 8 h: 8 h after administration; for Renin inhibition potency, 24 h: 24 h after administration
Protocol: Crab-eating monkeys (Cynomolgus monkeys) (2.8-5.0 kg) were fed on low sodium diet (Na 7.15 mg/100 g feed) for six days, during which the monkeys intramuscularly received furosemide (2 mg/kg body weight) every other day from the second day of the experiment, in order to make the monkeys hyperrenin condition.
After seven days from the low sodium feeding, the monkeys were restrained on a monkey chair. Compounds to be tested are dissolved in 0.1 M citric acid/physiological saline or suspended in water with addition of β-cyclodextrin, and orally administered to the monkeys using a stomach probe (15 mg/kg body weight). […] For the blood collection, an injection syringe containing 30 μl of 6% aqueous EDTA·2Na solution was used. The collected blood was transferred into a test tube and centrifuged (3000 rpm, 10 minutes) at 4° C., and the resultant supernatant was used to determine the renin content. Plasma renin activity (AI(ng)/ml/h value) was measured using Radioimmunoassy kit commercially available from Dinabott Co. in the same manner as in the foregoing in vitro test. Renin inhibition potencies of the compounds tested, which were expressed as a percentage of renin activity relative to the activity before the administration, are listed in Table 12.

[1] = biological target: intrinsic renin contained in the renatured human plasma (Homo sapiens, UniProt P00797); experiment: Renin inhibition in vitro (angiotensin I production in renatured human plasma, RIA)
Protocol: Commercially available lyophilized human plasma (Ortho, Bi-Level Plasma Renin Control) was renatured by dissolving in water. Angiotensinogen was allowed to react with intrinsic renin contained in the renatured plasma to generate angiotensin I (AI), which was quantitatively measured with radioimmunoassay (RIA). Thus, potency of the plasma renin was determined on the basis of the AI production. For this purpose, Renin RIA kit (RENIN' RIABEAD®) manufacture by Dinabott was used. All of the reagents necessary for the measurement of the AI production were available from the attachment of the kit, and the measurement was conducted according to the manufacturer's direction.
To the plasma (0.2 ml) were added all of the reagents, and the mixture was combined with either of sample solutions (0.002 ml) of various concentrations which had been prepared by dissolving a test compound in different amount of ethanol. Ethanol (0.002 ml) containing no test compound was used as a control solution. The amount of AI produced was measured after 60 minutes incubation. Renin inhibition potency of test compound was determined by comparing the amount of AI produced by a sample solution with that produced by a control solution.

[2] = read-out: IC50 (concentration which inhibits renin activity by 50%), 60 minutes incubation
[3] = read-out: IC50 (concentration which inhibits renin activity by 50%), 60 minutes incubation, tested form: 3/4H2O
[4] = furosemide not administered, tested form: 1/2H2O, 1/4iPr2O
[5] = read-out: IC50 (concentration which inhibits renin activity by 50%), 60 minutes incubation, tested form: 1/2H2O
[6] = low sodium diet + furosemide, tested form: 3/4H2O

## O=C(C[C@H](O)[C@H](CC1CCCCC1)NC(=O)[C@H](Cc1cscn1)NC(=O)[C@@H](CC(=O)N1CCOCC1)Cc1cccc2ccccc12)c1ccccc1
Plasma renin activity; low sodium diet + furosemide
  Renin inhibition potency, Max: 46%
  Renin inhibition potency, Mean: 28%
  Renin inhibition potency, 4 h: 12%
[1]; [2]
  IC50: 7.52 nM

## COc1ccccc1C(=O)C[C@H](O)[C@H](CC1CCCCC1)NC(=O)[C@H](Cc1c[nH]cn1)NC(=O)[C@H](Cc1ccccc1)CS(=O)(=O)C(C)(C)C
[1]; [3]
  IC50: 53.9 nM

## O=C(CN1CCOCC1)N[C@@H](Cc1ccccc1)C(=O)N[C@@H](Cc1cscn1)C(=O)N[C@@H](CC1CCCCC1)[C@@H](O)CC(=O)c1ccncc1
Plasma renin activity; low sodium diet + furosemide
  Renin inhibition potency, Max: 59%
  Renin inhibition potency, Mean: 47%
  Renin inhibition potency, 4 h: 55%
  Renin inhibition potency, 6 h: 6%
  Renin inhibition potency, 8 h: 18%
  Renin inhibition potency, 24 h: 34%
[1]; [2]
  IC50: 5.9 nM

## CC(C)(C)S(=O)(=O)C[C@@H](Cc1ccccc1)C(=O)N[C@@H](Cc1c[nH]cn1)C(=O)N[C@@H](CC1CCCCC1)[C@@H](O)CC(=O)c1ccccc1
Plasma renin activity; [4]
  Renin inhibition potency, 4 h: 49%
  Renin inhibition potency, Max: 49%
  Renin inhibition potency, Mean: 46%
[1]; read-out: IC50 (concentration which inhibits renin activity by 50%), 60 minutes incubation, tested form: 1/2H2O, 1/4iPr2O
  IC50: 5.87 nM

## O=C(CN1CCOCC1)N[C@@H](Cc1cccc2ccccc12)C(=O)N[C@@H](Cc1cscn1)C(=O)N[C@@H](CC1CCCCC1)[C@@H](O)CC(=O)C1CCCCC1
[1]; [5]
  IC50: 1.69 nM

## CC(C)(C)S(=O)(=O)C[C@@H](Cc1ccccc1)C(=O)N[C@@H](Cc1c[nH]cn1)C(=O)N[C@@H](CC1CCCCC1)[C@@H](O)CC(=O)c1ccccc1Cl
[1]; read-out: IC50 (concentration which inhibits renin activity by 50%), 60 minutes incubation, tested form: 0.1CH2Cl2, 1/3H2O
  IC50: 9.3 nM

## O=C(C[C@H](O)[C@H](CC1CCCCC1)NC(=O)[C@H](Cc1cscn1)NC(=O)[C@@H](CC(=O)N1CCOCC1)Cc1cccc2ccccc12)c1cccc(OCCN2CCOCC2)c1
Plasma renin activity; [6]
  Renin inhibition potency, 4 h: 35%
  Renin inhibition potency, 6 h: 0%
  Renin inhibition potency, 8 h: 0%
  Renin inhibition potency, 24 h: 0%
  Renin inhibition potency, Max: 80%
  Renin inhibition potency, Mean: 48%
[1]; [3]
  IC50: 4.51 nM

## CC(C)(C)S(=O)(=O)C[C@@H](Cc1ccccc1)C(=O)N[C@@H](Cc1c[nH]cn1)C(=O)N[C@@H](CC1CCCCC1)[C@@H](O)CC(=O)c1ccc2c(c1)OCO2
[1]; read-out: IC50 (concentration which inhibits renin activity by 50%), 60 minutes incubation, tested form: 2H2O, 2/5 dioxane
  IC50: 7.36 nM

## CC(C)(C)S(=O)(=O)C[C@@H](Cc1ccccc1)C(=O)N[C@@H](Cc1cscn1)C(=O)N[C@@H](CC1CCCCC1)[C@@H](O)CC(=O)c1ccsc1
[1]; [2]
  IC50: 3.17 nM

## CC(C)(C)S(=O)(=O)C[C@@H](Cc1ccccc1)C(=O)N[C@@H](Cc1c[nH]cn1)C(=O)N[C@@H](CC1CCCCC1)[C@@H](O)CC(=O)c1c(F)cccc1F
[1]; read-out: IC50 (concentration which inhibits renin activity by 50%), 60 minutes incubation, tested form: 2/3H2O
  IC50: 4.56 nM

## O=C(N[C@@H](CC1CCCCC1)[C@@H](O)CNS(=O)(=O)CCN1CCOCC1)[C@H](Cc1cscn1)NC(=O)[C@H](Cc1ccccc1)NS(=O)(=O)N1CCOCC1
[1]; read-out: IC50 (concentration which inhibits renin activity by 50%), 60 minutes incubation, tested form: 0.75H2O
  IC50: 0.7 nM

## CC(C)(C)S(=O)(=O)C[C@@H](Cc1ccccc1)C(=O)N[C@@H](Cc1c[nH]cn1)C(=O)N[C@@H](CC1CCCCC1)[C@@H](O)CC(=O)c1ccccc1NS(C)(=O)=O
[1]; read-out: IC50 (concentration which inhibits renin activity by 50%), 60 minutes incubation, tested form: 1/4(iPr)2O, 1/2H2O
  IC50: 71.3 nM

## Cc1ccc(C(=O)C[C@H](O)[C@H](CC2CCCCC2)NC(=O)[C@H](Cc2c[nH]cn2)NC(=O)[C@H](Cc2ccccc2)CS(=O)(=O)C(C)(C)C)cc1
[1]; [3]
  IC50: 29 nM

## CC(C)(C)S(=O)(=O)C[C@@H](Cc1ccccc1)C(=O)N[C@@H](Cc1c[nH]cn1)C(=O)N[C@@H](CC1CCCCC1)[C@@H](O)CC(=O)c1ccc(F)cc1F
[1]; [5]
  IC50: 4.22 nM

## O=C(C[C@H](O)[C@H](CC1CCCCC1)NC(=O)[C@H](Cc1cscn1)NC(=O)[C@H](Cc1ccccc1)NS(=O)(=O)N1CCOCC1)C1CCCCC1
[1]; [2]
  IC50: 0.31 nM

## CC(C)(C)S(=O)(=O)C[C@@H](Cc1ccccc1)C(=O)N[C@@H](Cc1c[nH]cn1)C(=O)N[C@@H](CC1CCCCC1)[C@@H](O)CC(=O)c1cccc(C(=O)N2CCOCC2)c1
[1]; read-out: IC50 (concentration which inhibits renin activity by 50%), 60 minutes incubation, tested form: 5/4H2O
  IC50: 3.75 nM

## CC(C)(C)S(=O)(=O)C[C@@H](Cc1ccccc1)C(=O)N[C@@H](Cc1cscn1)C(=O)N[C@@H](CC1CCCCC1)[C@@H](O)CC(=O)c1ccccc1
[1]; [2]
  IC50: 2.07 nM

## COc1cccc(C(=O)C[C@H](O)[C@H](CC2CCCCC2)NC(=O)[C@H](Cc2c[nH]cn2)NC(=O)[C@H](Cc2ccccc2)CS(=O)(=O)C(C)(C)C)c1
[1]; read-out: IC50 (concentration which inhibits renin activity by 50%), 60 minutes incubation, tested form: 1.5H2O
  IC50: 3.21 nM

## CC(C)(C)S(=O)(=O)C[C@@H](Cc1ccccc1)C(=O)N[C@@H](Cc1c[nH]cn1)C(=O)N[C@@H](CC1CCCCC1)[C@@H](O)CC(=O)c1ccc(F)cc1
[1]; [3]
  IC50: 9.1 nM

## CC(C)(C)S(=O)(=O)C[C@@H](Cc1ccccc1)C(=O)N[C@@H](Cc1c[nH]cn1)C(=O)N[C@@H](CC1CCCCC1)[C@@H](O)CC(=O)c1ccccc1F
[1]; [3]
  IC50: 4.44 nM

## CC(C)(C)S(=O)(=O)C[C@@H](Cc1ccccc1)C(=O)N[C@@H](Cc1c[nH]cn1)C(=O)N[C@@H](CC1CCCCC1)[C@@H](O)CC(=O)c1ccc(C(F)(F)F)cc1
[1]; [5]
  IC50: 259 nM

## O=C(C[C@H](O)[C@H](CC1CCCCC1)NC(=O)[C@H](Cc1cscn1)NC(=O)[C@H](Cc1cccc2ccccc12)NS(=O)(=O)N1CCOCC1)CN1CCOCC1
[1]; [2]
  IC50: 1.07 nM

## CC(C)(C)S(=O)(=O)C[C@@H](Cc1ccccc1)C(=O)N[C@@H](Cc1c[nH]cn1)C(=O)N[C@@H](CC1CCCCC1)[C@@H](O)CC(=O)c1cccc(OC(=O)N2CCOCC2)c1
[1]; read-out: IC50 (concentration which inhibits renin activity by 50%), 60 minutes incubation, tested form: 1 3/4H2O
  IC50: 22.8 nM

## O=C(C[C@H](O)[C@H](CC1CCCCC1)NC(=O)[C@H](Cc1cscn1)NC(=O)[C@H](Cc1cccc2ccccc12)NS(=O)(=O)N1CCOCC1)CN1CCCCC1
[1]; [2]
  IC50: 11.6 nM

## CC(C)(C)S(=O)(=O)C[C@@H](Cc1ccccc1)C(=O)N[C@@H](Cc1c[nH]cn1)C(=O)N[C@@H](CC1CCCCC1)[C@@H](O)CC(=O)c1cccc(F)c1
[1]; [3]
  IC50: 10.9 nM

## Cn1ccc(C(=O)C[C@H](O)[C@H](CC2CCCCC2)NC(=O)[C@H](Cc2cscn2)NC(=O)[C@H](Cc2ccccc2)CS(=O)(=O)C(C)(C)C)c1
[1]; [2]
  IC50: 3.31 nM

## CN(C)S(=O)(=O)N[C@@H](Cc1ccccc1)C(=O)N[C@@H](Cc1cscn1)C(=O)N[C@@H](CC1CCCCC1)[C@@H](O)CC(=O)c1ccncc1
[1]; [2]
  IC50: 3.16 nM

## CC(C)(C)S(=O)(=O)C[C@@H](Cc1ccccc1)C(=O)N[C@@H](Cc1c[nH]cn1)C(=O)N[C@@H](CC1CCCCC1)[C@@H](O)CC(=O)c1cccc(C#N)c1
[1]; read-out: IC50 (concentration which inhibits renin activity by 50%), 60 minutes incubation, tested form: H2O, 1/4CH2Cl2
  IC50: 12.6 nM

## NC(=O)C[C@H](NC(=O)[C@H](Cc1cccc2ccccc12)NS(=O)(=O)N1CCOCC1)C(=O)N[C@@H](CC1CCCCC1)[C@@H](O)CC(=O)c1ccncc1
[1]; [2]
  IC50: 9.53 nM

## O=C(CN1CCOCC1)N[C@@H](Cc1cccc2ccccc12)C(=O)N[C@@H](Cc1cscn1)C(=O)N[C@@H](CC1CCCCC1)[C@@H](O)CNS(=O)(=O)c1cccnc1
[1]; read-out: IC50 (concentration which inhibits renin activity by 50%), 60 minutes incubation, tested form: 0.5H2O, 0.25CH2Cl2
  IC50: 0.41 nM

## CC(C)(C)S(=O)(=O)C[C@@H](Cc1ccccc1)C(=O)N[C@@H](Cc1c[nH]cn1)C(=O)N[C@@H](CC1CCCCC1)[C@@H](O)CC(=O)c1nccs1
[1]; read-out: IC50 (concentration which inhibits renin activity by 50%), 60 minutes incubation, tested form: 2H2O, 1/2C4H8O2
  IC50: 12 nM

## Cc1nc(C[C@H](NC(=O)[C@H](Cc2ccccc2)NS(=O)(=O)N2CCOCC2)C(=O)N[C@@H](CC2CCCCC2)[C@@H](O)CC(=O)c2ccncc2)cs1
[1]; [2]
  IC50: 6.72 nM
